PMC9951290, “Comprehensive Structure–Activity Relationship Studies of Cepafungin Enabled by Biocatalytic C–H Oxidations” (ACS Central Science, 2023)
“And” between values parts separate entries of the source, which are not always exact repeats. Identical values can stand only once.

Protein sequences, listed by entry. Tags and fused reporters are not part of them. Lines headed by an entry give the natural chain unless they say otherwise; changes in a name come on top. Residues count along the entry.
UniProt Q99436, 44-277 limits assumed: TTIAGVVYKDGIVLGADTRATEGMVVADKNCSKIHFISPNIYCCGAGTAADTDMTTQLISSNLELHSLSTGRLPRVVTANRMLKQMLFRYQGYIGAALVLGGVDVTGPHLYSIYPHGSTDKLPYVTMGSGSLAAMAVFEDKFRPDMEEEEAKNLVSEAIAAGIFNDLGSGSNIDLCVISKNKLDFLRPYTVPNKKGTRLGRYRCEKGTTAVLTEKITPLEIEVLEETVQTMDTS

Assays:
[1] = tested on: Mino
[2] = tested on: RPMI 8226 cells; assay: Global proteomics analysis via LC-MS/MS of RPMI 8226 cells treated with BTZ or 50 (Table S5); format: cell-based, human
[3] = tested on: JeKo-1
[4] = target: proteasome subunit β2 (Homo sapiens, UniProt Q99436); assay: In situ β2 proteasome activity assay (Ac-RLR-AMC) in RPMI 8226 cells; format: cell-based
Procedure: Cellular assays were performed on human multiple myeloma RPMI 8226 cells (Figure 4). First, relative inhibition of proteasome subunits β5 and β2 for all analogues and the natural product was measured at 30 nM compound concentration. Following incubation of the compounds in cell culture for 6 h, cells were lysed, and fluorogenic subunit-specific peptide substrates Suc-LLVY-AMC (β5) or Ac-RLR-AMC (β2) were incubated with the lysates; fluorescence readings provided relative proteasome activity levels in comparison with DMSO (Figure 4A). Next, cytotoxicity screening was performed at 30 and 100 nM concentrations for sufficient coverage of dynamic range (Figure 4B). […] Therefore, the improved cytotoxicity of phenyl cepafungin 50 likely results from a more pronounced loss of β5 function in RPMI 8226 cells. This drastic increase in proteasome inhibition may be due to π-stacking of the lipid tail phenyl ring with the β6 subunit residues Tyr106 and/or Tyr5. […]
(§1) Mammalian cells were maintained in RPMI-1640 media. […] Cells were lysed by needle sonication to obtain cell lysates and protein concentration was determined using the […]
fluorescence was read at A360ex/A460em. […]
in DMSO) or DMSO and cultured for 48 hours. Toxicity was determined using the WST-1 assay (Roche) according to the protocol of the manufacturer. […]

[5] = tested on: RPMI 8226 cells
[6] = tested on: H929
[7] = tested on: HBL2
[8] = tested on: U266
[9] = target: proteasome subunit β5 (Homo sapiens, UniProt P28074); assay: In situ β5 proteasome activity assay (Suc-LLVY-AMC) in RPMI 8226 cells; format: cell-based
Description: A preliminary series of analogues, including the natural product glidobactin A (2), were synthesized by largely the same route (Scheme 2B, Figure 2).[36] Desoxycepafungin (38) was synthesized from Boc-Lys(Boc)-OH by peptide couplings/macrocyclization to assess the role of the macrocycle hydroxylation in 1 toward proteasome inhibition. The saturated cepafungin analogue 39 was designed to address the possible role of rigidity in the tail fragment induced by the diene seen in many natural cepafungins and glidobactins. An analogue bearing unsaturation at its macrocyclic lysine was envisioned to provide a head-to-head comparison between the cepafungin and syringolin macrocyclic core. […] Proteasome subunit β5 IC50 values were determined in situ in RPMI 8226 cells. […]
Cellular assays were performed on human multiple myeloma RPMI 8226 cells (Figure 4). […] Following incubation of the compounds in cell culture for 6 h, cells were lysed, and fluorogenic subunit-specific peptide substrates Suc-LLVY-AMC (β5) or Ac-RLR-AMC (β2) were incubated with the lysates; fluorescence readings provided relative proteasome activity levels in comparison with DMSO (Figure 4A). […]
as §1

In the case of `C[C@H]1/C=C/C(=O)NCC[C@H](O)C[C@H](NC(=O)[C@@H](NC(=O)/C=C/C=C/CCCCCc2ccccc2)[C@@H](C)O)C(=O)N1`, the EC50 [1] is reported as 5.6 nM, the “overlap of upregulated proteins commonly affected by BTZ and 50” value ([2]; 17 common proteins) is reported as 89% and the “number of proteins with statistically significant increase in expression” value ([2]; RPMI 8226, 14 h, 2.5 nM BTZ or 3 nM 50 vs DMSO, out of 4080 quantified, FDR 5%, S0 0.1) is reported as 19 proteins. For the same compound, the EC50 [3] was 9.8 nM, the “β2 subunit IC50 compared to 1” value [4] was “roughly similar IC50” and the IC50 ([4]; read-out: Proteasome β2 activity IC50, 6 h, Ac-RLR-AMC, n = 3, Figure 4D) was 36 nM. The EC50 [5] was 3.1 nM and 3 nM, the EC50 [6] was 0.8 nM and the EC50 [7] was 3.4 nM. The EC50 [8] was 18.9 nM and 20 nM, the “fold lower β5 IC50 than 1 (greater β5 inhibitory activity)” value [9] was 7 fold and the IC50 ([9]; read-out: Proteasome β5 activity IC50, 6 h, Suc-LLVY-AMC, n = 3, Figure 4D) was 4 nM.
